These results are taken from patent US20250146007A1 (priority 2022, published 2025).

Entries after “also recorded” stand apart in the source; their conditions may differ.

This assay relates to C. acnes wild type KPA171202. The format is cell-based, Cutibacterium acnes.

As to `O=c1[nH]c(=O)n([C@H]2C[C@H](O)[C@@H](CO)O2)cc1F` [FUDR, 5-fluoro-2′-deoxyuridine], the “growth of wild type C. acnes on FUDR plates” value is reported as “sensitive; also recorded: could only grow in absence; also recorded: could not grow”. Take `CC[C@H]1OC(=O)[C@H](C)[C@@H](O[C@H]2C[C@@](C)(OC)[C@@H](O)[C@H](C)O2)[C@H](C)[C@@H](O[C@@H]2O[C@H](C)C[C@H](N(C)C)[C@H]2O)[C@](C)(O)C[C@@H](C)C(=O)[C@H](C)[C@@H](O)[C@]1(C)O` [ery, erythromycin]: the “growth of wild type C. acnes on erythromycin plates” value was “sensitive”.
